Data published in US20170327559A1, “VIRAL INACTIVATION USING IMPROVED SOLVENT-DETERGENT METHOD” (Baxalta Incorporated, priority 2010, published 2017).
Values joined by “and” are separate entries in the source; they are usually repeats but may differ in a detail not shown here. Equal entries are not always repeated.

Experiments:
[1] = Temperature effects on solvent/detergent components before and after 0.2 μm filtration (HPLC); format: physicochemical; conditions: for S/D component concentration after 0.2 μm filtration, Mean / S/D component concentration before 0.2 μm filtration, Mean: n = 3; for S/D component concentration after 0.2 μm filtration / S/D component concentration before 0.2 μm filtration: runs 1-3
Protocol: In order to evaluate the influence of a lower temperature on the mixing time of solvent/detergent components, 50 mL solvent/detergent solutions were prepared by adding 0.3% (v/v) TNBP, 1.0% (v/v) polyoxyethylene octyl phenyl ether (TRITON® X-100) and 0.3% (v/v) polysorbate 80 sorbitan monooleate (TWEEN® 80) and stirring at 4±2° C. for 10, 20, or 30 minutes. As the solvent/detergent solution already contained 0.1% polysorbate 80 sorbitan monooleate (TWEEN® 80), the final concentration for this compound was of 0.4%. The concentration of TNBP and polyoxyethylene octyl phenyl ether (TRITON® X-100) were determined simultaneously by using C18 RP-HPLC with a refractive index detector (RID). The concentration of polysorbate 80 sorbitan monooleate (TWEEN® 80) was determined by C1 RP-HPLC using an evaporative light scattering detector (ELSD). For the HPLC analysis of TNBP and polyoxyethylene octyl phenyl ether (TRITON® X-100), an isocratic elution is employed using 68% methanol in water. In the assay of polysorbate 80 sorbitan monooleate (TWEEN® 80), a gradient elution from 60% methanol in water to 100% methanol is used.
To evaluate the impact of the temperature toward a potential retention of solvent/detergent conponents during the filtration step, 50 mL solvent/detergent solutions were prepared by adding 0.3% (v/v) TNBP, 1.0% (v/v) polyoxyethylene octyl phenyl ether (TRITON® X-100) and 0.3% (v/v) polysorbate 80 sorbitan monooleate (TWEEN® 80), stirring at 4±2° C. for 30 minutes and the concentration of each component was measured as described above. The solvent/detergent solutions were then processed under three different temperature conditions: 22.5° C. with a warm up period of about 8 hours; 22.5° C. with a warm up period of about 2 hours; and 4° C. without any warm-up or preheating step. At the end of the incubation period, samples were filtrated through a 0.2 μm filter and TNBP, polyoxyethylene octyl phenyl ether (TRITON® X-100) and polysorbate 80 sorbitan monooleate (TWEEN® 80) concentrations were measured by HPLC.

[2] = Mixing time effects on solvent/detergent components (RP-HPLC)

CCCCOP(=O)(OCCCC)OCCCC
S/D component concentration after 0.2 μm filtration, Mean ([1]; 4° C./2 H): 0.27%
S/D component concentration before 0.2 μm filtration, Mean ([1]; 4° C./2 H): 0.27%
S/D component concentration after 0.2 μm filtration ([1]; 4° C./2 H): 0.27% and 0.28%
S/D component concentration before 0.2 μm filtration ([1]; 4° C./2 H): 0.27% and 0.28%
S/D component concentration after 0.2 μm filtration, Mean ([1]; 22.5° C./2 H): 0.28%
S/D component concentration before 0.2 μm filtration, Mean ([1]; 22.5° C./2 H): 0.28%
S/D component concentration after 0.2 μm filtration ([1]; 22.5° C./2 H): 0.28% and 0.29%
S/D component concentration before 0.2 μm filtration ([1]; 22.5° C./2 H): 0.28% and 0.27%
S/D component concentration after 0.2 μm filtration, Mean ([1]; 22.5° C./8 H): 0.27%
S/D component concentration before 0.2 μm filtration, Mean ([1]; 22.5° C./8 H): 0.26%
S/D component concentration after 0.2 μm filtration ([1]; 22.5° C./8 H): 0.28% and 0.25%
S/D component concentration before 0.2 μm filtration ([1]; 22.5° C./8 H): 0.23% and 0.28%
S/D component concentration, Mean ([2]; mean of 10, 20, 30 min stirring at 4±2° C.): 0.36 ± 0.01%
S/D component concentration ([2]; stirring at 4±2° C. for 10 min): 0.36%
S/D component concentration ([2]; stirring at 4±2° C. for 20 min): 0.35%
S/D component concentration ([2]; stirring at 4±2° C. for 30 min): 0.37%
